Paper PMC12703749, “H2O2–Responsive Anticancer Prodrug: Synthesis, Precision Deuteration in Search of In Vivo Metabolites, and Activation Pathway” (Journal of Medicinal Chemistry, 2025)

Assay: In vivo safety in xenograft-bearing mice (mortality, body weight, organ histology)
Settings: 5 mg/kg IP

## CCc1cc(N(CCCl)CCCl)ccc1B(O)O
8 weeks
  treatment-related mortality or adverse effects: no treatment-related mortality or adverse effects occurred
8 weeks, H&E staining
  histological examination of major organs (liver, kidneys, spleen, lungs, heart): no structural abnormalities or pathological changes
Week 1 to week 8
  body weights: increased steadily
